System: HaCaT (immortalized human keratinocyte cell)
Settings: suspended with PVA, glucopan

lutetium Borate [LuBO3]
toxic effects on cells: does not show toxic effects on cells

— patent US20240307434A1, “USE OF LUTETIUM SALT COMPOUNDS FOR ANTIVIRAL EFFECT” (priority 2022, published 2024)
